# Laboratory results: patent US20210290732A1, “GLP-1R and GCGR Agonists, Formulations, and Methods of Use” (Spitfire Pharma LLC, priority 2020, published 2021)
# How the values were obtained:
# [1] = 6-week repeat-dose toxicity and toxicokinetics in cynomolgus monkeys (once weekly SC); format: in vivo, cynomolgus monkey (Macaca fascicularis); settings: cynomolgus monkey, plasma, subcutaneous, mean, monkey plasma
# Method: The study was conducted by Covance.
# Male and female cynomolgus monkeys (28 animals/sex; Macaca fascicularis) of Asian origin were received from Envigo Global Services Inc. (previously Covance Research Products) in Alice, Tex. Animals were acclimated to the test facility for at least 30 days prior to initiation.
# Animals were dosed via subcutaneous injection into the dorsal region on Days 1, 8, 15, 22, 29, and 36 of the dosing phase at a volume of 2.0 mL/kg. The vehicle control article was F58 Formulation Buffer, which consisted of 0.050% (w/w) polysorbate 20, 0.348% (w/w) arginine, 4.260% (w/w) mannitol in deionized water (pH 7.7±0.1).
# Assessment of toxicity was based on mortality, clinical observations, body weights, qualitative food consumption, ophthalmic observations, electrocardiographic (ECG) measurements, neurological examinations, qualitative respiration rates, and clinical and anatomic pathology. Blood samples were collected for toxicokinetic evaluations.
# The dose sites were in the dorsal scapular region of each animal. Doses were rotated between the sites. The dose sites were as follows: Dose Site A: Upper left scapular region, Dose Site B: Upper right scapular region, Dose Site C: Lower left scapular region, Dose Site D: Lower right scapular region The following animals were not dosed due to body weight loss, body condition score, and veterinary recommendation on the days listed in the following table.
# Body weights were recorded for animals four times during the predose phase, on Day −1 of the dosing phase (day prior to dose initiation), and weekly thereafter (based on Day −1) to Day 14 of the dosing phase. Starting on Day 14 of the dosing phase, body weights were collected twice weekly (based on Day 14) through to the end of the dosing phase. Body weights were collected on Days 1, 8, 15, 22, and 28 of the recovery phase. Data presented in FIG. 13 and FIG. 14 represent body weight change as a % of Day-1 in males and females respectively.
# plasma proteins = experiment: plasma protein binding by ultracentrifugation, human plasma; format: in vitro ADME; settings: male, pooled plasma, pH 7.4, 15000 ng/mL, 37° C., 6 hours, read-out: mean percent protein binding (converted)
# Description: Such non-covalent binding to albumin is anticipated to slow down the degradation of peptide in plasma and results in decreased renal clearance. […] Pooled plasma was obtained from at least three Sprague Dawley rats, beagle dogs, and cynomolgus monkeys. Pooled human plasma was obtained from three human males (that reportedly had not taken any medication in the previous 7 days before collection). K2EDTA was used as the anticoagulant. The pH of each pool of plasma was adjusted, if needed, to approximately pH 7.4 with hydrochloric acid or sodium hydroxide. Ultracentrifugation was performed using polycarbonate ultracentrifugation tube placed in a S80 AT2 rotor at 37° C. at 357000×g for 6 hours to achieve separation of PUC (supernatant) from plasma proteins. After centrifugation, the PUC was analyzed by LC MS for the calculation of protein binding. Protein Binding was evaluated as Percent unbound=(Cu/Co)×100 and Percent bound=100-percent unbound where Co is the concentration of test article in plasma prior to ultracentrifugation (ng/mL) and Cu is the concentration of test article in plasma in the ultracentrifugate (ng/mL).
# [2] = female, 0.06 mg/kg, Day 36, Group 3, 0.06 mg/kg, F
# [3] = female, […], Day 1, Group 4, […], F
# [4] = female, […], Day 1, Group 5, […], F
# [5] = female, […], Day 36, Group 4, […], F
# [6] = female, […], Day 36, Group 5, […], F
# [7] = female, cynomolgus, 0.06 mg/kg, Day 1, Group 3, 0.06 mg/kg, F
# [8] = male, 0.03 mg/kg, Day 1, Group 2, 0.03 mg/kg, M
# [9] = male, 0.03 mg/kg, Day 36, Group 2, 0.03 mg/kg, M
# [10] = male, 0.06 mg/kg, Day 36, Group 3, 0.06 mg/kg, M
# [11] = male, […], Day 1, Group 4, […], M
# [12] = male, […], Day 1, Group 5, […], M
# [13] = male, […], Day 36, Group 4, […], M
# [14] = male, […], Day 36, Group 5, […], M
# [15] = male, cynomolgus, 0.06 mg/kg, Day 1, Group 3, 0.06 mg/kg, M
compound,measurement,setting,value
CC[C@H](C)[C@H](NC(=O)[C@H](Cc1ccccc1)NC(=O)[C@H](CCC(=O)O)NC(=O)[C@@H]1CCCCNC(=O)CC[C@H](NC(=O)[C@H](CC(=O)O)NC(=O)[C@H](CC(C)C)NC(=O)[C@H](Cc2ccc(O)cc2)NC(=O)[C@H](CCCCN)NC(=O)[C@H](CO)NC(=O)[C@H](Cc2ccc(O)cc2)NC(=O)[C@H](CC(=O)O)NC(=O)[C@H](CO)NC(=O)[C@@H](NC(=O)[C@H](Cc2ccccc2)NC(=O)[C@@H](NC(=O)CNC(=O)[C@H](CCC(N)=O)NC(=O)C(C)(C)NC(=O)[C@@H](N)Cc2c[nH]cn2)[C@@H](C)O)[C@@H](C)O)C(=O)N[C@@H](CCCCNC(=O)[C@H]2O[C@@H](OCCCCCCCCCCCCCCCCCC(=O)O)[C@H](O)[C@@H](O)[C@@H]2O)C(=O)N[C@@H](C)C(=O)N[C@@H](C)C(=O)N1)C(=O)N[C@@H](CCC(N)=O)C(=O)N[C@@H](Cc1c[nH]c2ccccc12)C(=O)N[C@@H](CC(C)C)C(=O)N[C@@H](CC(C)C)C(=O)N[C@@H](CCC(N)=O)C(=O)N[C@H](C(N)=O)[C@@H](C)O [SEQ ID NO: 1],AUC(0-t),"[1]; female, 0.03 mg/kg, Day 36, Group 2, 0.03 mg/kg, F, read-out: AUC0-312",7210 ng·h/mL
same,AUC(0-t),"[1]; female, 0.03 mg/kg, Day 36, Group 2, 0.03 mg/kg, F, read-out: AUC0-t",7110 ng·h/mL
same,AUC(0-t),"[1]; female, 0.06 mg/kg, AUC0-168, Day 1, Group 3, 0.06 mg/kg, F",11600 ng·h/mL
same,AUC(0-t),"[1]; female, 0.06 mg/kg, AUC0-168, Day 36, Group 3, 0.06 mg/kg, F",14200 ng·h/mL
same,half-life,"[1]; female, 0.06 mg/kg, Day 1, Group 3, 0.06 mg/kg, F",55.9 h
same,Cmax,[1]; [2],143 ng/mL
same,Tmax,[1]; [2],48 h
same,half-life,[1]; [2],62.2 h
same,AUC(0-t),"[1]; female, 0.06 mg/kg, Day 36, Group 3, 0.06 mg/kg, F, read-out: AUC0-312",16100 ng·h/mL
same,AUC(0-t),"[1]; female, 0.06 mg/kg, Day 36, Group 3, 0.06 mg/kg, F, read-out: AUC0-t",16100 ng·h/mL
same,Tmax,[1]; [3],48 h
same,half-life,[1]; [3],62.3 h
same,Tmax,[1]; [4],48 h
same,half-life,[1]; [4],59.4 h
same,Tmax,[1]; [5],48 h
same,half-life,[1]; [5],61.2 h
same,Tmax,[1]; [6],48 h
same,half-life,[1]; [6],63.2 h
same,Cmax,[1]; [7],107 ng/mL
same,Tmax,[1]; [7],48 h
same,AUC(0-t),"[1]; female, cynomolgus, 0.06 mg/kg, Day 1, Group 3, 0.06 mg/kg, F, read-out: AUC0-t",11600 ng·h/mL
same,AUC(0-t),"[1]; male, 0.03 mg/kg, AUC0-168, Day 1, Group 2, 0.03 mg/kg, M",6070 ng·h/mL
same,AUC(0-t),"[1]; male, 0.03 mg/kg, AUC0-168, Day 36, Group 2, 0.03 mg/kg, M",6520 ng·h/mL
same,Cmax,[1]; [8],59.9 ng/mL
same,Tmax,[1]; [8],48 h
same,half-life,[1]; [8],56.9 h
same,AUC(0-t),"[1]; male, 0.03 mg/kg, Day 1, Group 2, 0.03 mg/kg, M, read-out: AUC0-t",6070 ng·h/mL
same,Cmax,[1]; [9],64.1 ng/mL
same,Tmax,[1]; [9],48 h
same,half-life,[1]; [9],50.9 h
same,AUC(0-t),"[1]; male, 0.03 mg/kg, Day 36, Group 2, 0.03 mg/kg, M, read-out: AUC0-312",8080 ng·h/mL
same,AUC(0-t),"[1]; male, 0.03 mg/kg, Day 36, Group 2, 0.03 mg/kg, M, read-out: AUC0-t",7890 ng·h/mL
same,AUC(0-t),"[1]; male, 0.06 mg/kg, AUC0-168, Day 36, Group 3, 0.06 mg/kg, M",12600 ng·h/mL
same,Cmax,[1]; [10],137 ng/mL
same,Tmax,[1]; [10],24 h
same,half-life,[1]; [10],58.4 h
same,AUC(0-t),"[1]; male, 0.06 mg/kg, Day 36, Group 3, 0.06 mg/kg, M, read-out: AUC0-312",14700 ng·h/mL
same,AUC(0-t),"[1]; male, 0.06 mg/kg, Day 36, Group 3, 0.06 mg/kg, M, read-out: AUC0-t",14500 ng·h/mL
same,Tmax,[1]; [11],48 h
same,half-life,[1]; [11],60.4 h
same,Tmax,[1]; [12],24 h
same,half-life,[1]; [12],69 h
same,Tmax,[1]; [13],24 h
same,half-life,[1]; [13],63.4 h
same,Tmax,[1]; [14],48 h
same,half-life,[1]; [14],60.7 h
same,AUC(0-t),"[1]; male, cynomolgus, 0.06 mg/kg, AUC0-168, Day 1, Group 3, 0.06 mg/kg, M",8990 ng·h/mL
same,Cmax,[1]; [15],91.9 ng/mL
same,Tmax,[1]; [15],48 h
same,half-life,[1]; [15],51 h
same,AUC(0-t),"[1]; male, cynomolgus, 0.06 mg/kg, Day 1, Group 3, 0.06 mg/kg, M, read-out: AUC0-t",8990 ng·h/mL
same,"fraction unbound at 6 h, 15000 ng/mL",plasma proteins,0.002

# Like-named read-outs stand apart in the source and are kept apart here.
